# Reference: ChEMBL document CHEMBL1124719, “Selective opioid receptor agonists and antagonists: research tools and potential therapeutic agents” (1990)
# Amino acid sequences for entries named in this document (tags omitted). A change or cut given only in a name is not applied to a line headed by its entry.
# UniProt P35372, whole entry, looked up: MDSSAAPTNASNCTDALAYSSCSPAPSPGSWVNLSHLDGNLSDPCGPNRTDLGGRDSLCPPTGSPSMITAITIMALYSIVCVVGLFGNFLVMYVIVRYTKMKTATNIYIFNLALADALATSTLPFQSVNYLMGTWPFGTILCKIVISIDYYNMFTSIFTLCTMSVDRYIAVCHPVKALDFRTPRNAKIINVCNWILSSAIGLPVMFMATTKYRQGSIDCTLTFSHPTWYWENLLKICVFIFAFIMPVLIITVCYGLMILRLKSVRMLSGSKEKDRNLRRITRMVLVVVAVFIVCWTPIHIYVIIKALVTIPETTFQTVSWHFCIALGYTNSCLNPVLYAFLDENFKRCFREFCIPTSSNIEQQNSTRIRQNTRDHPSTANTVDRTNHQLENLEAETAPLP
# UniProt P32300, whole entry, looked up: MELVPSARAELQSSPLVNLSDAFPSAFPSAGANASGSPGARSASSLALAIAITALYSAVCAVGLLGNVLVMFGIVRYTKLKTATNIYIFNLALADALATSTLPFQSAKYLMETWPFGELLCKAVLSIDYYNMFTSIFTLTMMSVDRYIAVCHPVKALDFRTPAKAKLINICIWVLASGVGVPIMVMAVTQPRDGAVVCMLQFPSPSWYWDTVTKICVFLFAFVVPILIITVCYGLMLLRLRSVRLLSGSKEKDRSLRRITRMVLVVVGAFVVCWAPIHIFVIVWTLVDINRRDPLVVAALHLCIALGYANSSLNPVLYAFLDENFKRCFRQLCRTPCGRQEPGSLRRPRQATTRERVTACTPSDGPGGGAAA
# UniProt P41144: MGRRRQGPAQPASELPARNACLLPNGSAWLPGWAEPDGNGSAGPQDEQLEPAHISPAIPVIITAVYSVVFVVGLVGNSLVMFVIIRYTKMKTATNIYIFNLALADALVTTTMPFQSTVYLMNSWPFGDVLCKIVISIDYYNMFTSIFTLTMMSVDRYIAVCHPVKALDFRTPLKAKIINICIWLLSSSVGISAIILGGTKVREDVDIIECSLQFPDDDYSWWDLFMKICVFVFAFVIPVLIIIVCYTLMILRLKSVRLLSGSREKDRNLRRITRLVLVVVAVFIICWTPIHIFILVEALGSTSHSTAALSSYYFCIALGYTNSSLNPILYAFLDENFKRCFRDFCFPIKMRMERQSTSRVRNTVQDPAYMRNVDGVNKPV
# Experiments:
# [1] = target: Mu-type opioid receptor (Homo sapiens) (UniProt P35372); assay: In vivo ability to inhibit binding of Opioid receptor mu 1; No significant effect
# [2] = target: Delta-type opioid receptor (Mus musculus) (UniProt P32300); assay: In vivo ability to inhibit binding of Opioid receptor delta 1 in mouse vas deferens; No significant effect
# [3] = target: Kappa-type opioid receptor (Cavia porcellus) (UniProt P41144); assay: In vivo ability to inhibit binding of Opioid receptor kappa 1 in guinea pig brain; details: concentration not given here
smiles,measurement,setting,value
CN(C(=O)Cc1ccccc1N=C=S)[C@H]1CCCC[C@@H]1N1CCCC1,inhibition,[1],inactive
same,inhibition,[2],inactive
same,inhibition,[3],90%

# Activity calls are given as the source filed them. The calls are words filed in the database; no cut-off is given here.
